From publication PMC6563049, “Radiosynthesis of (R,S)‐[^18F]GE387: A Potential PET Radiotracer for Imaging Translocator Protein 18 kDa (TSPO) with Low Binding Sensitivity to the Human Gene Polymorphism rs6971” (Chemmedchem, 2019) come the findings set out here.

By UniProt entry, the sequences of proteins in these tests, tags left out.
UniProt P30536, whole entry T147A: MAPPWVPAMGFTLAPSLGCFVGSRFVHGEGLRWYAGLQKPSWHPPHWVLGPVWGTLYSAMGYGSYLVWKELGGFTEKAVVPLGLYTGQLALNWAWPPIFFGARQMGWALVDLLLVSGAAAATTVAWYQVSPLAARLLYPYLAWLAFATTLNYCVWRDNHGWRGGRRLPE
UniProt P30536, whole entry, stated change not applied: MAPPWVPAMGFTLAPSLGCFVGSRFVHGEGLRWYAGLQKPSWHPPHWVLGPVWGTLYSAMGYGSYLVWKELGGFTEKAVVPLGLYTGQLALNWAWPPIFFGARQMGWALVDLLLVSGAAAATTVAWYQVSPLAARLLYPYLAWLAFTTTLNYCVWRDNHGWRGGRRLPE

SMILES strings stand for the structures.

One assay addresses T1, human TSPO wild‐type (Homo sapiens, UniProt P30536).
T1 construct: expressed in transfected cells; host or cells: HEK cells, stably transfected; membranes
The assay is described as follows: Radioligand ([^3H]1) displacement binding on membranes of HEK cells stably transfected with wild-type TSPO. Conditions: HEK cell membranes, [^3H]1 10 nM, 4 °C, 90 min; mean±SEM, n=3; read-out: Ki (nM) at WT (Ala/Ala) HAB. How it is done: Binding affinities were measured as per our published protocol.21 Briefly, an Ultra‐Turrax homogeniser was used to prepare membranes from HEK cells stably transfected with wild‐type and A147T TSPO. […] Reactions were terminated by filtration through a 96‐well glass‐fibre filter plate (Millipore), and washed eight times with ice‐cold 50 mM Tris⋅HCl. Microscint 0 was added to the dry filters, and radioactivity read in a Microbeta^2 2450 Microplate Counter (PerkinElmer). Data were analysed using GraphPad Prism 6.0, and a four‐parameter nonlinear regression curve fit was used to calculate K i values. Data are expressed as the mean±SEM from at least three independent experiments.

The next assay deals with T2, TSPO A147T (Homo sapiens, UniProt P30536).
T2 construct: expressed in transfected cells; host or cells: HEK cells, stably transfected; membranes
The assay is described as follows: Radioligand ([^3H]1) displacement binding on membranes of HEK cells stably transfected with A147T TSPO. Here is the method:
Binding affinities were measured as per our published protocol.21 Briefly, an Ultra‐Turrax homogeniser was used to prepare membranes from HEK cells stably transfected with wild‐type and A147T TSPO. […] Reactions were terminated by filtration through a 96‐well glass‐fibre filter plate (Millipore), and washed eight times with ice‐cold 50 mM Tris⋅HCl. […] Data were analysed using GraphPad Prism 6.0, and a four‐parameter nonlinear regression curve fit was used to calculate K i values. Data are expressed as the mean±SEM from at least three independent experiments.

As to `CC[C@@H](C)N(C)C(=O)c1cc2ccccc2c(-c2ccccc2Cl)n1` [(R)-1, R‐1‐(2‐chlorophenyl)‐N‐methyl‐N‐(1‐methylpropyl)‐3‐isoquinoline carboxamide], the results for the Ki at human TSPO wild‐type and on TSPO A147T were 29.2 ± 7.3 nM and 36 ± 6.8 nM, respectively.
